Patent US5053408A, “Hexitol derivatives having vasodilative activity” (Kyowa Hakko Kogyo Co., Ltd., priority 1989, dated 1991)

Tested on: coronary vasospasm model (lysine-vasopressin)
Experiment: Effects on coronary vasospasm model (lysine-vasopressin test), inhibition of ST-segment elevation
Assay type: in vivo, male Wistar rats
Conditions: lysine-vasopressin 0.3 I.U./kg iv, MED = minimum dose with depression rate of 20% or higher

O=[N+]([O-])O[C@H]1CO[C@H]2[C@@H]1OC[C@H]2O[N+](=O)[O-]
Coronary vasoconstriction model MED i.p. (i.p., 20 min before anesthetization): < 30 mg/kg | Coronary vasoconstriction model MED p.o. (p.o., 30 min before anesthetization): < 30 mg/kg
